The values that follow come from article PMC7321161, “The Intriguing Effects of Substituents in the N-Phenethyl Moiety of Norhydromorphone: A Bifunctional Opioid from a Set of “Tail Wags Dog” Experiments” (Molecules, 2020).

By UniProt entry, the sequences of proteins in these tests, tags left out. Where a name states a change or a piece, a line headed by the entry shows the natural chain unless it says otherwise.
UniProt P41145: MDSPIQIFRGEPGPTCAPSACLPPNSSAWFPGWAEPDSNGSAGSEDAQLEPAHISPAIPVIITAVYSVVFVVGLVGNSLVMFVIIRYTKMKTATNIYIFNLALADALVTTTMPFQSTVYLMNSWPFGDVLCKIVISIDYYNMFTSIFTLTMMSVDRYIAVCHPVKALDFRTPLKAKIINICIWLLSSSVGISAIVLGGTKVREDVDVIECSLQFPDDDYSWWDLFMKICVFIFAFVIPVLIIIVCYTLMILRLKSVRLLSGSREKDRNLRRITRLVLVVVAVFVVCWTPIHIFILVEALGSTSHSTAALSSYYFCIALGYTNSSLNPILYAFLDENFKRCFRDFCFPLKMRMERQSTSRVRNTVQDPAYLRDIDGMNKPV

This assay concerns the target human κ-opioid receptor (OPRK1) (Homo sapiens, UniProt P41145). Put plainly: Forskolin-induced cAMP accumulation assay, HitHunter CHO-K1 κ receptor. The assay is classed as cell-based. A general note: cAMP levels reflect the balance of adenylyl cyclase and phosphodiesterase activity.

In the case of “(+)-(5α,7α,8β)-N-methyl-N-[7-(1-pyrrolidinyl)-1-oxaspiro[4.5]dec-8-yl]-benzeneacetamide”, the “KOR cAMP % Efficacy” value (normalized to vehicle and forskolin control) is recorded as 101.2 ± 1.4%. Further, the EC50 (read-out: KOR cAMP Agonist Potency ± SEM, inhibition of forskolin-induced cAMP accumulation) is 0.7 nM.
